System: A2780 cells
Test: In-vitro cell proliferation assay
Assay type: cell-based
Settings: read-out: Cell Proliferation (IC50), 72 hours, SRB

IC50: 2000 nM
SMILES: O=C(NCC1CC12CCN(C(=O)c1cncnc1)CC2)c1cc2ccncc2o1 (stereo not shown)
